Consider 89 compounds from PubChem BioAssay AID504847 (National Center for Advancing Translational Sciences (NCATS), 2011).

By UniProt entry, the sequences of proteins in these tests, tags left out.
UniProt P11473, whole entry: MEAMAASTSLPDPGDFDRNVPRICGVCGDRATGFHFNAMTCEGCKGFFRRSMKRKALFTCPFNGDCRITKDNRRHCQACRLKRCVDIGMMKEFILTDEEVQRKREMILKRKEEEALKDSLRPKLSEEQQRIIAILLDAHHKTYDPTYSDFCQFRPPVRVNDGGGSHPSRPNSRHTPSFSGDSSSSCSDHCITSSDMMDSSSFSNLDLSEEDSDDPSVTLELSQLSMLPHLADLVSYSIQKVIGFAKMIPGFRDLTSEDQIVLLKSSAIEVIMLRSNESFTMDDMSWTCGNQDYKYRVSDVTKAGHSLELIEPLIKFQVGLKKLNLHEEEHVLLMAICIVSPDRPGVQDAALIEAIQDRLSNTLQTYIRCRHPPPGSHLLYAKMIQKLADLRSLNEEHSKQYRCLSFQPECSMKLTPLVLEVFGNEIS

Values joined by “and” are separate entries in the source; they are usually repeats but may differ in a detail not shown here. Equal entries are not always repeated. The list shows a part of the results, in another mix than the full data. Results filed as inconclusive are left out. Active and inactive are the calls of the source. The call rests on the fitted dose curve; in most records, active means well fitted inhibition curve with a large enough effect; inconclusive means small, poorly fitted or top-dose-only effect, or another doubt; inactive means no such curve, though single readings can be large or run the other way.
On the % scale 0 is the no-effect control and ±100 the full control effect.

The target in the test is Vitamin D3 receptor (Homo sapiens) (UniProt P11473). Nature of the test: Inhibitors of the vitamin D receptor (VDR): qHTS. The settings on record: VDR-SRC2-3 peptide fluorescence polarization, 2 h; max response, negative = inhibition: hits give low values. For orientation: qHTS replaces the single test concentration by a dilution series.
For `Cc1ccc(NCCc2c([N+](=O)[O-])cc([N+](=O)[O-])cc2[N+](=O)[O-])cc1`, the max response, negative = inhibition was inactive: -13.1%.
Under `Nc1cccc2c([As](=O)(O)O)cccc12` stands inactive: -25.3%; under `Cc1cc(C)cc(OP(C)(=O)Nc2ccccn2)c1` (centres undefined), inactive: 7.64%; under `CP(=O)(Nc1cccc(Br)c1)Oc1ccccc1` (centres undefined), inactive: -4.39%.
Then `O=C(O)COc1ccc([As](=O)(O)O)cc1[N+](=O)[O-]`, with inactive: -0.352%; and `Nc1ccccc1[As](=O)(O)c1ccccc1`, with inactive: 7.44%.
Under `O=[N+]([O-])c1cccc([N+](=O)[O-])c1` stands inactive: -1.54%; under `CCOP1(=S)c2c(C)nn(CCC#N)c2N=C(c2ccccc2F)N1C` (centres undefined), inactive: -12.2%; under `CC1=NCCc2c1[nH]c1ccccc21.O=[N+]([O-])c1cc([N+](=O)[O-])c(O)c([N+](=O)[O-])c1`, inactive: -14.4%.
Consider `CN(C(=O)Cc1ccc(Cl)c(Cl)c1)[C@H]1CC[C@@]2(CCCO2)C[C@@H]1N1CCCC1`, for which the max response, negative = inhibition is inactive: -21.6%.
On to `O=[N+]([O-])c1ccc2c(c1)nnn2O`, for which the max response, negative = inhibition was inactive: -9.97%.
Under `CN(C)C(=O)c1cc([N+](=O)[O-])cc2c1-c1c(cc([N+](=O)[O-])cc1[N+](=O)[O-])C2=O` stands inactive: -23.6%; under `CCOP1(=S)c2c(C)nn(CCC#N)c2N=C(c2ccc(F)cc2)N1C` (centres undefined), inactive: -5.25%; under `CN(C(=O)Cc1ccccc1)[C@@H]1CC[C@]2(CCCO2)C[C@H]1N1CCCC1`, inactive: 5.59% and inactive: -6.61%.
With `N#CCCN(C(=O)COC(=O)C(O)(c1ccccc1)c1ccccc1)c1ccc(F)cc1`, the max response, negative = inhibition is inactive: -1.32%.
Regarding `O=[N+]([O-])OCC(CO[N+](=O)[O-])(CO[N+](=O)[O-])CO[N+](=O)[O-]`, the max response, negative = inhibition was inactive: -1.79%.
Then `NC(=O)Nc1ccc([As](=O)(O)O)cc1`, with inactive: 2.21% and inactive: -7.28% and inactive: -17.3%.
Under `CCOC(=O)c1ccc(NP(C)(=O)Oc2ccc(F)cc2)cc1` (centres undefined) stands inactive: -8.27%.
Then `O=P1(N(CCCl)CCCl)OCCC2CCCCN21` (centres undefined), with inactive: -9.12%.
Regarding `COc1ccc(OP(C)(=O)Nc2ccc(SC(F)(F)F)cc2)cc1` (centres undefined), the max response, negative = inhibition is inactive: -3.82%.
`O=C(NC1CCS(=O)(=O)C1)NP(=S)(Oc1ccccc1)Oc1ccccc1` (centres undefined): the max response, negative = inhibition was inactive: 16.7%.
In the case of `CCNC(=S)/N=C(\N)N[N+](=O)[O-]`, the max response, negative = inhibition is inactive: -16.9%.
For the compound `Cc1ccc(NP(=O)(Oc2cccc(C)c2)Oc2cccc(C)c2)nc1`, the max response, negative = inhibition is inactive: 10.1%.
Under `c1ccc(-c2nn[nH]n2)c(-c2nn[nH]n2)c1` stands inactive: 7.21%.
As to `CP(=O)(Nc1ccccc1)Oc1ccc(F)cc1` (centres undefined), the max response, negative = inhibition was inactive: 3.07%.
Then `CCCCCOc1ccc(NP(C)(=O)Oc2ccc(Cl)cc2Cl)cc1` (centres undefined), with inactive: 37.2%; and `O=c1c2cc([N+](=O)[O-])ccc2[nH]c2c([N+](=O)[O-])cc([N+](=O)[O-])cc12`, with inactive: 17%.
Consider `CN(C)C(=O)Oc1noc2ccccc12`, for which the max response, negative = inhibition was inactive: 5.33%.
Consider `CC(NC(=O)COC(=O)C(O)(c1ccccc1)c1ccccc1)c1ccccc1` (centres undefined), for which the max response, negative = inhibition was inactive: -5.17%.
Turning to `Cc1ccccc1OP(=O)(Nc1ccccn1)Oc1ccccc1C`, the max response, negative = inhibition is inactive: 5.24%.
Under `CC(=O)NC(SC(=S)N(CC(C)C)CC(C)C)C(Cl)(Cl)Cl` (centres undefined) stands inactive: -13.8%; under `Cc1ccc(OP(=O)(Nc2ccccn2)Oc2ccc(C)cc2)cc1`, inactive: 8.72%.
Then `COC(=O)c1cc2c(s1)N=C(c1ccccc1)N(C)P2(=O)N1CCOCC1` (centres undefined), with inactive: 10.7%; and `Cc1c([N+](=O)[O-])cc([N+](=O)[O-])c(Br)c1[N+](=O)[O-]`, with inactive: -22.3%.
As for `CCC(=O)N1C2C3N(C(=O)CC)C1C1N(C(=O)CC)C(C(N1C(=O)CC)N3C(=O)CC)N2C(=O)CC`, the max response, negative = inhibition is inactive: 1.39%.
For the compound `CCN(CC)CCCOC(=O)C(O)(c1ccccc1)C1CCCCC1` (centres undefined), the max response, negative = inhibition is inactive: 7.7%.
Under `O=C(OC1CN2CCC1CC2)c1ccccc1` (centres undefined) stands inactive: 1.2% and inactive: -3.63%.
As for `CP(=O)(Nc1ccccc1F)Oc1ccccc1` (centres undefined), the max response, negative = inhibition was inactive: 2.03%.
In the case of `CCc1cc(O)c([N+](=O)[O-])c(C)c1[N+](=O)[O-]`, the max response, negative = inhibition was inactive: -10.5%.
In the case of `CC(C)c1ccc(OP(C)(=O)Nc2ccc(SC(F)(F)F)cc2)cc1` (centres undefined), the max response, negative = inhibition is inactive: -7.96%.
Under `CC(C)(C)C(=O)NC(Sc1ccccc1)C(Cl)(Cl)Cl` (centres undefined) stands inactive: -3.17%; under `CCOc1ccc(C2=NCC(CBr)S2)cc1` (centres undefined), inactive: 1.94%; under `O=P1(Nc2nc3ccc(Cl)cc3s2)COc2ccccc2O1` (centres undefined), inactive: 8.76%.
Then `CC(=O)Nc1ccc(Oc2c([N+](=O)[O-])cc([N+](=O)[O-])cc2[N+](=O)[O-])cc1`, with inactive: -27%; and `CC(=O)Nc1ccc([As](=O)(O)O)c(O)c1`, with inactive: 4.73%; and `COC(=O)C1(C)COP(=O)(NCc2ccccc2)OC1` (centres undefined), with inactive: -7.22%.
Under `CC(=O)c1ccc(N2CC2c2ccncc2)cc1` (centres undefined) stands inactive: 6.34%.
As to `N#C/C(=C\c1ccc(N(CCBr)CCBr)cc1)C(N)=O`, the max response, negative = inhibition was inactive: -16.3%.
Then `C[C@H]1OP(=O)(Oc2ccccc2)C[C@@H]2O[C@@H]21` (some centres undefined), with inactive: 8.49%.
In the case of `C[C@@H]1C=CCP(=O)(Oc2ccccc2)O1` (some centres undefined), the max response, negative = inhibition is inactive: -8.53%.
Take `O=C(OCCN1CCN(CCOCc2ccccc2)CC1)C(O)(c1ccccc1)c1ccccc1`: the max response, negative = inhibition is inactive: -0.362%.
Take `Cc1ccccc1CN(C)C(=O)COC(=O)C(O)(c1ccccc1)c1ccccc1`: the max response, negative = inhibition was inactive: -2.33%.
As for `CCOP(C)(=S)SCC(=O)NC(C)(CC)C(=O)O` (centres undefined), the max response, negative = inhibition was inactive: 16.5%.
Regarding `CCC(C)(OOC(C)(C)C)OOC(C)(C)C`, the max response, negative = inhibition is inactive: 4.16%.
Consider `c1nnnn1CCn1cnnn1`, for which the max response, negative = inhibition was inactive: 5.52%.
Under `CP(=O)(Nc1ccc(SC(F)(F)F)cc1)Oc1ccc(F)cc1` (centres undefined) stands inactive: -25.2%; under `O=P(Nc1nccs1)(c1ccccc1)c1ccccc1`, inactive: -15.1%; under `CC(C)C(=O)NC(Sc1ccccc1)C(Cl)(Cl)Cl` (centres undefined), inactive: -21.1%.
Consider `Cc1ccccc1NP(C)(=O)Nc1ccccc1C`, for which the max response, negative = inhibition was inactive: 10.8%.
Take `CCN(CCCl)Cc1ccccc1C`: the max response, negative = inhibition was inactive: -1.63%.
Then `CP(=O)(Nc1ccc2c(c1)OCCO2)Oc1ccccc1` (centres undefined), with inactive: -3.98%; and `C[C@H]1OP(=O)(Oc2ccccc2)[C@H](O)[C@H](O)[C@H]1N=[N+]=[N-]` (some centres undefined), with inactive: -15.1%.
Under `O=P(Nc1nc2ccccc2s1)(c1ccccc1)c1ccccc1` stands inactive: -8.94%; under `CN(C)CCOC(=O)C(O)(c1ccccc1)C1CCCCC1` (centres undefined), inactive: -1.17%; under `CN(C(=O)Cc1ccccc1)[C@H]1CC[C@@]2(CCCO2)C[C@@H]1N1CCCC1`, inactive: 5.56%.
Then `COc1ccc(N)c([N+](=O)[O-])c1[N+](=O)[O-]`, with inactive: -2.29%.
For the compound `COc1ccc(OP(C)(=O)Nc2cccc(Br)c2)cc1` (centres undefined), the max response, negative = inhibition was inactive: 1.14%.
Then `CN(C)C1(CNC(=O)c2ccc(Cl)c(S(N)(=O)=O)c2)CCCCC1`, with inactive: -4.96%; and `O=P(Nc1ccccn1)(c1ccc(Br)cc1)c1ccc(Br)cc1`, with inactive: -10%.
Turning to `C(Cc1nn[nH]n1)Cc1nn[nH]n1`, the max response, negative = inhibition was inactive: -18%.
In the case of `Nc1ccc([As](=O)(O)c2ccc([N+](=O)[O-])cc2)cc1`, the max response, negative = inhibition was inactive: 4.41%.
Consider `Cc1c(C(c2ccc3c(c2)OCO3)c2c(C)n(C)n(-c3ccccc3)c2=O)c(=O)n(-c2ccccc2)n1C.O=[N+]([O-])c1cc([N+](=O)[O-])c(O)c([N+](=O)[O-])c1`, for which the max response, negative = inhibition is inactive: -1.06%.
For `O=C(OC1CN2CCC1CC2)c1cccc(Cl)c1` (centres undefined), the max response, negative = inhibition is inactive: -4.37%.
For `O=[N+]([O-])c1ccc(OP2(=O)COCCO2)cc1` (centres undefined), the max response, negative = inhibition is inactive: 7.11%.
As to `CC(=O)NC(SC(=S)N(C)C)C(Cl)(Cl)Cl` (centres undefined), the max response, negative = inhibition is inactive: -15.4%.
Under `O=[N+]([O-])c1ncn(CCn2cnc([N+](=O)[O-])n2)n1` stands inactive: -9.25%; under `O=[N+]([O-])c1ccc(O)c(/C=N/Nc2ccc([N+](=O)[O-])cc2[N+](=O)[O-])c1`, inactive: -14.8%.
Under `Cc1cc(-c2cccc3ccccc23)c(C)cn1.O=[N+]([O-])c1cc([N+](=O)[O-])c(O)c([N+](=O)[O-])c1` stands inactive: -2.19%.
Then `O=[As](O)(c1ccccc1)c1ccc(O)cc1`, with inactive: 8.48%; and `O=C(Nc1cc([As](=O)(O)O)ccc1O)c1ccccc1`, with inactive: -10.1%.
With `CCOC(=O)c1ccc(NP(C)(=O)Oc2ccc(Cl)cc2)cc1` (centres undefined), the max response, negative = inhibition is inactive: -16.5%.
Then `CP(=O)(OC12CC3CC(CC(C3)C1)C2)OC12CC3CC(CC(C3)C1)C2`, with inactive: -1.87%; and `Nc1ccc2c(ccc3cccnc32)n1.O=[N+]([O-])c1cc([N+](=O)[O-])c(O)c([N+](=O)[O-])c1`, with inactive: -12.6%; and `O=P1(N(CCCl)CCCl)OCCCS1` (centres undefined), with inactive: 33.7%.
Under `COC(=O)C1(C)COP(=O)(Nc2ccccc2)OC1` (centres undefined) stands inactive: 5.62%; under `C/C1=C2N=C(/C=C3N=C(/C(C)=C4\[N-][C@@](C)([C@H]5N=C1[C@@](C)(CCC(=O)NC[C@H](C)OP(=O)([O-])O[C@@H]1[C@H](O)[C@H](n6cnc7cc(C)c(C)cc76)O[C@@H]1CO)[C@@H]5CC(N)=O)[C@](C)(CC(N)=O)[C@H]4CCC(N)=O)[C@@](C)(CC(N)=O)[C@@H]\3CCC(N)=O)C(C)(C)[C@@H]/2CCC(N)=O.[C-]#N.[Co+3]`, inactive: -4.97%; under `O=C(O)CNc1ccc([As](=O)(O)O)cc1`, inactive: 4.07%.
Then `CC(C)(C)C(=O)NC(Sc1ccncn1)C(Cl)(Cl)Cl` (centres undefined), with inactive: -19.5%; and `O=[N+]([O-])c1ncn(CCn2ncnc2[N+](=O)[O-])n1`, with inactive: 16.9%.
